Molecular target: human cloned 5-HT6 receptors (Homo sapiens, UniProt P50406)
Experiment: 5-HT6 binding affinity, [3H]-LSD displacement on membranes of Hela cells expressing human cloned 5-HT6 receptors
Conditions: read-out: 5-HT6 binding Ki; [3H]-LSD 3.0 nM, Hela cell membranes, 120 min at room temperature

The chains behind the UniProt entries cited, without tags or fusion partners.
UniProt P50406, whole entry: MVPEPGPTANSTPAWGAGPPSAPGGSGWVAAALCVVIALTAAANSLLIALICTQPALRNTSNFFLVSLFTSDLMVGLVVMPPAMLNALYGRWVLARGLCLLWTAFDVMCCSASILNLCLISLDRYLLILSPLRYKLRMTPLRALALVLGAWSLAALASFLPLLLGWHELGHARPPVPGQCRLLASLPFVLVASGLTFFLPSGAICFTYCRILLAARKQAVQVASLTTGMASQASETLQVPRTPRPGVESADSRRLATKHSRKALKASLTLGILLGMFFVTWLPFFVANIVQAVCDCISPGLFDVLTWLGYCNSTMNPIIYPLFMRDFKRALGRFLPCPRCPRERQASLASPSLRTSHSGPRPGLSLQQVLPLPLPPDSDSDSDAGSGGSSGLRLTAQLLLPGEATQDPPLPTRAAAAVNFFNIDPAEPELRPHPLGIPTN

Structure (SMILES) | Ki
Cc1ccc(S(=O)(=O)n2ccc3c4c(ccc32)CCC(NC(C)C)C4)cc1 (stereo not drawn) | 26 nM
CCCCNC1CCc2ccc3c(ccn3S(=O)(=O)c3ccc(C)cc3)c2C1 (stereo not drawn) | 173 nM
CCCN(CCC)C1CCc2ccc3c(ccn3S(=O)(=O)c3ccc(C)cc3)c2C1 (stereo not drawn) | 173 nM

— patent US7671079B2, “Sulfonyltetrahydro-3H-benzo(e)indole-8-amine compounds as 5-hydroxytryptamine-6 ligands” (Wyeth LLC, priority 2003, dated 2010)
